Values of other authors as cited in patent US20120196057A1, “COMBINATION OF VITAMIN D AND 25-HYDROXYVITAMIN D 3” (priority 2008, published 2012).

Conditions: for several months; RDA 5-15 μg or 200-600 IU; cited from earlier work

Vitamin D
Chronic intake at which toxicity can occur: more than 100 times the recommended daily allowance
